Measurements from US11965894B2, “Method of diagnosis of drug induced liver injury” (BIOPREDICTIVE, priority 2017, dated 2024).

Key:
[1] = Serum biochemical markers (ActiTest components, AST) in adjudicated DILI cases grouped by responsible drug; conditions: DILI cases attributed to the drug, at inclusion
[2] = FibroTest and ActiTest scores in DILI cases; format: in vivo, human; conditions: DILI cases attributed to the drug, at inclusion

Substance gabapentin/pregabalin has an ApoA1 median [1] of 0.54 g/L, a BILI median [1] of 120 µmol/L and an HAPTO median [1] of 0.69 g/L. It also gave a FibroTest median [2] of 0.92.
